Our source for the IC50 values is patent publication EP0645379A2, “Benzoylacetylene derivatives” (priority 1993, dated 1995).

Amino acid sequences for entries named in this document (tags omitted). Residues count along the entry.
UniProt P00533, 25-1210 limits assumed: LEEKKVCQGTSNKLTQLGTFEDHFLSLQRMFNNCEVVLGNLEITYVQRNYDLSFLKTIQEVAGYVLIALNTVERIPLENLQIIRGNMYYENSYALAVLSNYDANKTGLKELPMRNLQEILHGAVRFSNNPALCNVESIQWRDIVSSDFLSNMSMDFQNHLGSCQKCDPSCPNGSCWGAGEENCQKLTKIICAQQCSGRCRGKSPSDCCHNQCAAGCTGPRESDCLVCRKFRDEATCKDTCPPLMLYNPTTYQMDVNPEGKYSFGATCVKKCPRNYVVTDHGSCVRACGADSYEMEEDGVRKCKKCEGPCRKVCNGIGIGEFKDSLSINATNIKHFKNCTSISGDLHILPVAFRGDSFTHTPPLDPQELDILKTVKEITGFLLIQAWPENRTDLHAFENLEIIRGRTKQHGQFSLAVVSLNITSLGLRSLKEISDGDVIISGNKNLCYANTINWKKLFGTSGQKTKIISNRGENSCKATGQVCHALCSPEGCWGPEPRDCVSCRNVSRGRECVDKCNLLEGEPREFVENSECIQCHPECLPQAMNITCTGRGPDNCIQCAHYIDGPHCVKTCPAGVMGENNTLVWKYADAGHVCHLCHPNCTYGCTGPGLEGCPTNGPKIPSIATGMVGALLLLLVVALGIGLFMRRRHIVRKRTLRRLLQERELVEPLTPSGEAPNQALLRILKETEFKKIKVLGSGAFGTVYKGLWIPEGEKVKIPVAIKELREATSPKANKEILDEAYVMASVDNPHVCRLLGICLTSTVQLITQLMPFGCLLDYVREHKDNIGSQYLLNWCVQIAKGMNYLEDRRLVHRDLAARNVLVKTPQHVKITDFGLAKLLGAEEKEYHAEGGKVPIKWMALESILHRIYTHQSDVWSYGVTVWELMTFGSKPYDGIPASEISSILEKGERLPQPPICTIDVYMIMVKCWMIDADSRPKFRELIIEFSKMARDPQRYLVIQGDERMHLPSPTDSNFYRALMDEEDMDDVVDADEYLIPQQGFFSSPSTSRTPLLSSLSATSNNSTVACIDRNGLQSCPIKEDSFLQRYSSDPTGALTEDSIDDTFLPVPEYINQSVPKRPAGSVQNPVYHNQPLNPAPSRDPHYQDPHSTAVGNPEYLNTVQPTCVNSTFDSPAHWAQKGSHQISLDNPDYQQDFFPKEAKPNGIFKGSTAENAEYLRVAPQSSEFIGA
UniProt P01133, 971-1023 partner limits assumed: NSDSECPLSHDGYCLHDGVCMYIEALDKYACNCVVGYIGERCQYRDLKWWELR

Structures are written as SMILES.

One assay concerns KB cell. Nature of the assay: Cancer cell growth inhibitory activity (KB cells, MTT colorimetric determination). It counts as cell-based, human. The conditions noted are these: read-out: Cancer cell growth inhibitory activity(IC50; Table-3; KB cells, three days culture, MTT; 3) fumarate, 4) hydrochloride; tested form: HCl.
The target of assay [1] is partially purified human EGF (epidermal growth factor) receptor tyrosine kinase (Homo sapiens, UniProt P00533). The settings on record: read-out: Tyrosine kinase inhibitory activity (IC50, μ); Table-2 continued; partially purified EGF receptor from A431 cells; 4) hydrochloride; tested form: HCl.

As to `CCN(CC)C(C#CC(=O)c1ccc(OC)c(OC)c1)(CC)CC`, the IC50 (in general, the midpoint of a concentration-inhibition curve) in the assay on KB cell stood at 0.22 µM; in assay [1], 2.2 µM.
On to `CCN(CC)C(C)(C#CC(=O)c1ccc(OC)c(OC)c1C)C(C)C` (stereo not drawn), for which the results for the IC50 (in the assay on KB cell; in assay [1]) were 0.075 µM and 1.3 µM, respectively.
Turning to `COc1ccc(C(=O)C#CC(N)(C(C)C)C(C)C)cc1OC`, the IC50 with KB cell worked out at 9.7 µM; in assay [1], 1.1 µM.
